{
  "source": "patent EP4644396A1",
  "about": "(Visionpharma (Nantong) Co., Ltd, priority 2022, dated 2024)",
  "key": {"human TLR7": {"molecular_target": "T1, human TLR7 (Homo sapiens, UniProt Q9NYK1)", "T1 sequence (Q9NYK1 27-1049)": "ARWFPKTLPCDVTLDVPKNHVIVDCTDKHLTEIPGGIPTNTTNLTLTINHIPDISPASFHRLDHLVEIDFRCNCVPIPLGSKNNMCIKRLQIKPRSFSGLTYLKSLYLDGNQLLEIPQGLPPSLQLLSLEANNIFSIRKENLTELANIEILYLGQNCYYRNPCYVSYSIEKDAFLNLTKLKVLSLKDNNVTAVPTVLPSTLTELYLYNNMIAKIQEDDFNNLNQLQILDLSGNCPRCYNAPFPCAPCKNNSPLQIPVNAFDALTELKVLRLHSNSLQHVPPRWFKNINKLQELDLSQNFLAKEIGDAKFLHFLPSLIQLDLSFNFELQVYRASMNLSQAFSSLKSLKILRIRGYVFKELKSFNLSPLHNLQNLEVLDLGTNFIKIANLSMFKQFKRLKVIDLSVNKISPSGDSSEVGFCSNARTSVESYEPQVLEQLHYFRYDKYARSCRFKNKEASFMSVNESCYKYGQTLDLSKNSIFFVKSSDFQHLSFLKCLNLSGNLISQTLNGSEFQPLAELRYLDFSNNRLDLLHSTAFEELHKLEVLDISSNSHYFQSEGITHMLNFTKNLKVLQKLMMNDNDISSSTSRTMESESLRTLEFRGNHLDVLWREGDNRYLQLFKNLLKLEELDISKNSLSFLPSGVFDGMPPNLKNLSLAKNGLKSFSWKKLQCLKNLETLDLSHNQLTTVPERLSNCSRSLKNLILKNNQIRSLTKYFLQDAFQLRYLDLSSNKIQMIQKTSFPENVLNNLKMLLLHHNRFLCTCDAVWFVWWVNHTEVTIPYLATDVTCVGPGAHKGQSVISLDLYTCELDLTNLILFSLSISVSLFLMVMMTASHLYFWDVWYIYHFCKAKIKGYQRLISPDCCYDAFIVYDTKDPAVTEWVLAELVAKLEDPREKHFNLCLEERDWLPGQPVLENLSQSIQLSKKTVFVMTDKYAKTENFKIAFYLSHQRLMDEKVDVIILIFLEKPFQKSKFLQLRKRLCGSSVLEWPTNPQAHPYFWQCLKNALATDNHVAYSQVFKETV", "assay": "HEK-Blue hTLR7 SEAP reporter gene inhibition assay", "type": "cell-based", "conditions": "HEK-Blue hTLR7 IC50 (µM)", "method": "(§1) HEK-Blue cells with stable expression of human TLR7 or TLR8 were used in the evaluation of inhibitory activity of compounds in the present invention against TLR7 or TLR8, by using its ability to induce the SEAP reporting gene under the control of the fusion of IFN-β minimum promoters into five NF-κB and ap-1 binding sites, as follows: hTLR7 HEK-Blue cells (Invivogen, 80, 000 cells per well) or hTLR8 HEK-Blue cells (60, 000 cells per well) were added to a 96-well cell culture plate. A solution of the testing compounds were added to each well, with the final concentration of tested compounds in the medium ranged from 0.001 to 36 µM and the culture was incubated for 15 minutes. M5049 was used as positive controls in the testing.\n(§2) Then a TLR7 ligand (Gardiquimod, purchased from MedChemExpress, with final concentration of ligand in cell culture medium kept at 10 µM) or a TLR8 ligand (purchased from MedChemExpress with final concentration in cell culture media at 10 µM) and the culture was incubated for 20 hours. According to the manufacturer's instructions, a HEK-Blue reagent Quanti-blue (Invivogen) was used to detect the SEAP levels in cell cultures. The half […] concentration or IC50 was calculated by using GraphPad Prism. The IC50 values were defined as A and B (Against hTLR7 EC50(µM): A < 0.05 µM, B > 0.05 µM; against hTLR8 EC 50(µM): A < = 0.1 µM, B > 0.1 µM; -, as untested). […]"}, "human TLR8": {"molecular_target": "T2, human TLR8 (Homo sapiens, UniProt Q9NR97)", "T2 construct": "expressed in transfected cells", "T2 sequence (Q9NR97 27-1041)": "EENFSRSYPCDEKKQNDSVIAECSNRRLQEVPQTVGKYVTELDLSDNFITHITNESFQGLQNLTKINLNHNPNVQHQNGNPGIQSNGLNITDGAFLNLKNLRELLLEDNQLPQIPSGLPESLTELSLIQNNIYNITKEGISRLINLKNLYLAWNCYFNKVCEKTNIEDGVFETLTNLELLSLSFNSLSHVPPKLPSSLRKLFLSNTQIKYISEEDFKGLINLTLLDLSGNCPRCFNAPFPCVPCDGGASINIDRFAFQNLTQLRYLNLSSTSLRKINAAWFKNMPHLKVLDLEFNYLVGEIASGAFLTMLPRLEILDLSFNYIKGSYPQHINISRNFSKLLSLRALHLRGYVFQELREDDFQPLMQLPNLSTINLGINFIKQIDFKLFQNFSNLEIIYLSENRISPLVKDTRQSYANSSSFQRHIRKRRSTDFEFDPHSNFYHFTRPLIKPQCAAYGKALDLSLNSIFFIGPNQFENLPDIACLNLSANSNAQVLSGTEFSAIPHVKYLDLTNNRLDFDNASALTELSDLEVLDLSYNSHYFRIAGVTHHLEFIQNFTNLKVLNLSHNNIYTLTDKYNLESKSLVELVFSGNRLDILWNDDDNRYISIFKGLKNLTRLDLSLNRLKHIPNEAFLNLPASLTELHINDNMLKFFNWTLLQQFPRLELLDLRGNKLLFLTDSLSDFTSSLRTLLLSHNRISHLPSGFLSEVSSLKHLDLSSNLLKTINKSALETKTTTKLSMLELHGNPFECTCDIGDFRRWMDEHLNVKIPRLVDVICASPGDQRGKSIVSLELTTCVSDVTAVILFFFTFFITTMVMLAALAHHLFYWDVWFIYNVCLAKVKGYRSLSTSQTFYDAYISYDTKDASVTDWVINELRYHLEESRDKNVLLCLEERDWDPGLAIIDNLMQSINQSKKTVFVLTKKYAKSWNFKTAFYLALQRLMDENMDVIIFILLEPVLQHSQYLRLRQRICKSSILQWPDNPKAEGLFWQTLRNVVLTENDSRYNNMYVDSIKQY", "assay": "HEK-Blue hTLR8 SEAP reporter gene inhibition assay", "type": "cell-based", "conditions": "HEK-Blue hTLR8 IC50 (µM)", "method": "as §1, §2"}},
  "data": [
    {"compound": "C[C@@H]1CN(c2ccc(C#N)n3ncc(F)c23)Cc2c3c(nn21)CN(CC12CC(C(=O)N(C)C)(C1)C2)[C@@H](C)C3", "note": "[Example I-202, 3-(((4R,9S)-2-(7-cyano-3-fluoropyrazolo[1,5-a]pyridin-4-yl)-4,9-dimethyl-1,2,3,4,9,10-hexahydropyrido[3',4':3,4]pyrazolo[1,5-a]pyrazin-8(7H)-yl)methyl)-N,N-dimethyl bicyclo[1.1.1]pentane-1-carboxamide]", "values": [
      {"measurement": "IC50", "setting": "human TLR7", "result": "> 0.05", "unit": "µM"},
      {"measurement": "IC50", "setting": "human TLR8", "result": "< 0.1", "unit": "µM"}
    ]}
  ]
}
